Tests used:
[1] = biological target: P2X7 receptor (Homo sapiens, UniProt Q99572); assay type: cell-based; set-up: THP-1 cells differentiated into macrophages by PMA allowed entry of the large fluorescent dye Yo-Pro 1; endogenous in cells; host or cells: PMA-differentiated THP-1 cells; conditions: THP-1 macrophages; fluorescence (RFU)
Excerpt: To prepare FIG. 17, THP-1 cells differentiated into macrophages by PMA allowed entry of the large fluorescent dye Yo-Pro 1, in an assay for P2X7 receptor activity. […] Indeed, FIG. 17 provides the results of the fluorescence measurement in relative fluorescence units (RFU, y-axis).

Sequences of proteins named here, by UniProt entry; tags and fusion partners are left off. A change or cut given only in a name is not applied to a line headed by its entry.
UniProt Q99572: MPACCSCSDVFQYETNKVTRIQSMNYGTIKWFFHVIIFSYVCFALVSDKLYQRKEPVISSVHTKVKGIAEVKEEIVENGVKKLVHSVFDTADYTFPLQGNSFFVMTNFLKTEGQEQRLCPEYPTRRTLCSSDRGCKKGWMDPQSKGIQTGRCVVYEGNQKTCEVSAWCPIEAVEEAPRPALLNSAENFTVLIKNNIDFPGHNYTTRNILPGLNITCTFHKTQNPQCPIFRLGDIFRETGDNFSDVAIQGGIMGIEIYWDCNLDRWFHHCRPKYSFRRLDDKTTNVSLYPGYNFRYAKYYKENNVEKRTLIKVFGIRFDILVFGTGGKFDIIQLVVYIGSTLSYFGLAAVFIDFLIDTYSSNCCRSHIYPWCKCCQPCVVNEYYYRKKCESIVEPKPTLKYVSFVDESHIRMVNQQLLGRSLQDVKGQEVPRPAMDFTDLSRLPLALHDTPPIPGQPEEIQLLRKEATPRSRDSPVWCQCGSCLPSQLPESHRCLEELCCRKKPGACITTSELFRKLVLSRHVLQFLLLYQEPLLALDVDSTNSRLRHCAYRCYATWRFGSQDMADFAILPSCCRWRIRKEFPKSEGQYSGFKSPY

[2] = tested on: mtDNA; conditions: 50 μM; four days; relative to DMSO

Compound: Cc1cn([C@H]2C=C[C@@H](CO)O2)c(=O)[nH]c1=O [d4T, 2′3′ dideoxythymidine]
- Yo-Pro entry induced by ATP [1]: dose-dependently reduced Yo-Pro entry
- relative quantity of mtDNA (mtDNA depletion) [2]: exhibit mtDNA depletion
